From PubChem BioAssay
This is a sample that favours compounds with a hit; in the whole collection about 2.3% have one here.
ASAP1 inh = ASAP1 ArfGAP inhibition. inhibition, % at 16.5 µM. 0.19% of 360,000 active. ASAP1-stimulated ARF1 GTP hydrolysis, GDP FP detection; in the data active = inhibition above about 25%
ARFGAP1 inhibitor = inhibits rat ARF GTPase activating protein 1; Arfgap1-stimulated ARF1 GTP hydrolysis, GDP FP detection; 0.26% of 360,000 active; Q62848; inhibition, % at 16.5 µM;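 active = inhibition above a per-plate limit, mean inhibition of low control wells plus 3 SD, cut at about 25% in these data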
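Assay system: Rat Arfgap1 GAP domain (His6, aa 1-136), purified enzyme | Buffer or medium: HEPES 25 mM pH 7.5, NaCl 150 mM, MgCl2, DTT | Schedule: GTP hydrolysis reaction 2 h at 25 °C | Signal: FP of antibody-bound GDP Alexa 633 tracer, ex 620/em 688 nm | Measure: Percent inhibition of Arfgap1-stimulated GTP hydrolysis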
MC4R antag cAMP = human MC4R antagonism in cAMP assay; P32245; MC4R-expressing cells, MTII-stimulated cAMP, LANCE TR-FRET; inhibition, % at 6.5 µM; 0.48% of 360,000 active;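 active = inhibition above its plate's cutoff, the mean of tested wells on that plate plus 3 SD, cut at about 29% in these data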
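material = U2OS cells stably expressing human melanocortin 4 receptor (MC4R) | also added = Melanotan II challenge | dosing = single nominal compound dose of 6.5 µM | detection = TR-FRET with Eu-cAMP and labeled anti-cAMP, 671 nm | replication = singlicate | timing = compound 30 min, challenge 1 h, detection 1 h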
CendR NRP1 mod = modulators of CendR peptide binding to human neuropilin-1. FAM-RPARPAR peptide binding to NRP-1, fluorescence polarization. inhibition, % at 25 µM. 0.85% of 360,000 active. AID 602438;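 active = inhibition or corrected inhibition above about 18%, plus a signal ratio from 0.5 to 1.5, limit read from the data, passing the limit was not always enough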
UUG fidelity = modulators of start codon recognition fidelity in yeast; S. cerevisiae UUG-firefly luciferase reporter, luminescence/redox ratio; activity score, % at 18.7 µM; 0.13% of 350,000 active;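 active = replicate mean at a twofold rise or more, about +100% in these data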;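 also: firefly luciferase made from a UUG start codon reports start codon fidelity; reporter light over untreated wells divided by growth signal over untreated wells; some hits fall short of that in this replicate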
MC4R ag barr = agonists of human melanocortin 4 receptor (MC4R) beta-arrestin. activation, % at 8.9 µM. AID 540308. 0.98% of 360,000 active. U2OS MC4R beta-arrestin complementation, luminescence; percent of melanotan II response, DMSO zero. P32245;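 active = activation above a per-plate cutoff, the mean activation of sample wells on that plate plus 3 SD, cut at about 8% in these data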
MC4R barr conf = human MC4R beta-arrestin agonism confirmation | AID 602192 | 31% of 2,400 active | U2OS MC4R beta-arrestin recruitment, luminescence; scaled DMSO 0%, Melanotan II 100% | activation, % at 8.9 µM | shares compounds with MC4R ag barr;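 active = mean activation across replicates above the hit cutoff set in the earlier primary screen, cut at about 8% in these data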
MOR-DOR barr ag = counter-screen for MC4R agonists: agonists of mu-delta opioid heterodimer | shares compounds with MC4R ag barr | AID 602194 | activation, % at 9.2 µM | U2OS PathHunter beta-arrestin, beta-gal luminescence; percent of deltorphin B response, DMSO zero | 5.8% of 2,400 active;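 active = mean activation across replicates exceeds the hit threshold derived in the earlier primary screen, cut at about 18% in these data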
Hits are given with their value.

How did CN(C)CCNC(=O)c1cccc(-c2cnc3c(NC=O)cc(-c4ccc(F)cc4)cn23)c1 do in these assays?
ASAP1 inh: inactive; ARFGAP1 inhibitor: inactive; MC4R antag cAMP: inactive; CendR NRP1 mod: inactive; UUG fidelity: inactive; MC4R ag barr: inactive

How did CN(C)C(=O)c1cccc(-c2cnc3c(NC=O)cc(-c4ccccc4F)cn23)c1 do in these assays?
ASAP1 inh: inactive; ARFGAP1 inhibitor: inactive; MC4R antag cAMP: inactive; CendR NRP1 mod: inactive; UUG fidelity: inactive; MC4R ag barr: 9.8; MC4R barr conf: 11; MOR-DOR barr ag: inactive

How did CCSc1ccc(-c2cc(NC=O)c3ncc(-c4cccc(C(=O)N(C)C)c4)n3c2)cc1 do in these assays?
ASAP1 inh: inactive; ARFGAP1 inhibitor: inactive; MC4R antag cAMP: inactive; CendR NRP1 mod: inactive; UUG fidelity: inactive; MC4R ag barr: 10; MC4R barr conf: 9.1; MOR-DOR barr ag: inactive

How did CC[C@@H](C)[C@H](CN[C@H](CNC)C(C)C)NC[C@@H](C)c1ccc(CC(C)C)cc1 do in these assays?
ASAP1 inh: inactive; ARFGAP1 inhibitor: inactive; MC4R antag cAMP: inactive; CendR NRP1 mod: inactive; UUG fidelity: inactive; MC4R ag barr: 45; MC4R barr conf: 16; MOR-DOR barr ag: inactive

How did CC(C)NC(=O)N1[C@H](CO)[C@@H](c2ccccc2)[C@@H]1CNC(=O)CN(C)C do in these assays?
UUG fidelity: inactive

What do the screens show for `Cc1ccccc1S(=O)(=O)N1CCCCN2[C@H](CO)[C@@H](c3ccc(-c4ccccc4)cc3)[C@@H]2C1`?
UUG fidelity: inactive

Results for CCOC(=O)c1c(Nc2ccccc2)sc(/C=C2\C=Nc3ccccc32)c1O ?
MC4R antag cAMP: inactive; CendR NRP1 mod: inactive; UUG fidelity: inactive; MC4R ag barr: 15; MC4R barr conf: inactive; MOR-DOR barr ag: inactive

Results for COc1ccc(NC(=O)N(C)C[C@H]2Oc3c(NC(=O)c4cnccn4)cccc3C(=O)N([C@@H](C)CO)C[C@H]2C)cc1 ?
UUG fidelity: inactive

How did Cc1ccc(-c2nnc(-c3ccc4ccccc4c3)o2)cc1 do in these assays?
ASAP1 inh: inactive; ARFGAP1 inhibitor: inactive; MC4R antag cAMP: inactive; CendR NRP1 mod: inactive; MC4R ag barr: 10; MC4R barr conf: inactive; MOR-DOR barr ag: inactive

How did Clc1ccc(-c2nnc(-c3ccc4ccccc4c3)o2)cc1 do in these assays?
ASAP1 inh: inactive; ARFGAP1 inhibitor: inactive; MC4R antag cAMP: inactive; CendR NRP1 mod: inactive; UUG fidelity: inactive; MC4R ag barr: inactive

How did CCOC(=O)C1=C(c2ccccc2)Nc2ncnn2C1c1ccc(C(=O)O)cc1 (stereo unspecified) do in these assays?
ASAP1 inh: inactive; ARFGAP1 inhibitor: inactive; MC4R antag cAMP: inactive; CendR NRP1 mod: inactive; UUG fidelity: inactive; MC4R ag barr: inactive

Results for CCOC(=O)C1=C(c2ccccc2)NC(N)=NC1c1ccc(OCc2ccc(C(=O)OC)cc2)cc1 (stereo unspecified) ?
ASAP1 inh: inactive; ARFGAP1 inhibitor: inactive; MC4R antag cAMP: inactive; CendR NRP1 mod: inactive; MC4R ag barr: 14; MC4R barr conf: inactive; MOR-DOR barr ag: inactive

How did C[C@@H]1CCCCO[C@@H](CN(C)C(=O)C2CCCCC2)[C@H](C)CN([C@@H](C)CO)C(=O)c2cc(NC(=O)Nc3ccc(C(F)(F)F)cc3)ccc2O1 do in these assays?
UUG fidelity: inactive

What do the screens show for `COc1ccc(-c2sc3cc4c(cc3c2C#CC2(N)CCCCC2)OCO4)cc1`?
ASAP1 inh: inactive; ARFGAP1 inhibitor: inactive; MC4R antag cAMP: inactive; CendR NRP1 mod: inactive; UUG fidelity: inactive; MC4R ag barr: 16; MC4R barr conf: inactive; MOR-DOR barr ag: inactive

How did COc1cc(OC)cc(-c2sc3ccc(OC)cc3c2C#CC2(N)CCCCC2)c1 do in these assays?
ASAP1 inh: inactive; ARFGAP1 inhibitor: inactive; MC4R antag cAMP: inactive; CendR NRP1 mod: inactive; UUG fidelity: inactive; MC4R ag barr: 21; MC4R barr conf: 14; MOR-DOR barr ag: inactive

How did COc1ccc(-c2sc3ccc(N4CCOCC4)cc3c2C#CCO)cc1 do in these assays?
ASAP1 inh: inactive; ARFGAP1 inhibitor: inactive; MC4R antag cAMP: inactive; CendR NRP1 mod: inactive; UUG fidelity: inactive; MC4R ag barr: inactive

Results for COc1ccc(-c2sc3ccc(N4CCOCC4)cc3c2C#CC2(O)CCCCC2)cc1 ?
ASAP1 inh: inactive; ARFGAP1 inhibitor: inactive; MC4R antag cAMP: inactive; CendR NRP1 mod: inactive; UUG fidelity: inactive; MC4R ag barr: 32; MC4R barr conf: 45; MOR-DOR barr ag: inactive

How did O=C(C[C@H]1C[C@@H]2c3cc(NC(=O)C4CCC4)ccc3O[C@@H]2[C@@H](CO)O1)NCC(F)(F)F do in these assays?
UUG fidelity: inactive

How did O=C(CC1CC1)Nc1ccc2c(c1)[C@@H]1C[C@@H](CC(=O)N3CCc4ccccc4C3)O[C@H](CO)[C@@H]1O2 do in these assays?
UUG fidelity: inactive

Results for CCCN(C)C[C@@H]1Oc2cc(-c3cccnc3)ccc2S(=O)(=O)N([C@@H](C)CO)C[C@@H]1C ?
UUG fidelity: inactive

How did COc1ccc(CC(=O)Nc2ccc(N3CCOCC3)cc2)cc1OC do in these assays?
ASAP1 inh: inactive; ARFGAP1 inhibitor: inactive; MC4R antag cAMP: inactive; CendR NRP1 mod: inactive; MC4R ag barr: 9.6; MC4R barr conf: 9.6; MOR-DOR barr ag: inactive

What do the screens show for `COc1ccc(CN(C)C[C@@H]2OCCCC[C@@H](C)Oc3ccc(NC(=O)Nc4ccccc4)cc3C(=O)N([C@H](C)CO)C[C@@H]2C)cc1`?
UUG fidelity: inactive

What do the screens show for `CC(=O)C(c1ccccc1)C(c1ccccc1)C(C)[N+](=O)[O-]` (stereo unspecified)?
ASAP1 inh: inactive; ARFGAP1 inhibitor: inactive; MC4R antag cAMP: inactive; CendR NRP1 mod: inactive; UUG fidelity: inactive; MC4R ag barr: 21; MC4R barr conf: inactive; MOR-DOR barr ag: inactive

How did COc1ccc(OC)c(NC(=O)Nc2nc(C(N)CCc3ccccc3)cs2)c1 (stereo unspecified) do in these assays?
ASAP1 inh: inactive; ARFGAP1 inhibitor: inactive; MC4R antag cAMP: inactive; CendR NRP1 mod: inactive; UUG fidelity: inactive; MC4R ag barr: 11; MC4R barr conf: 36; MOR-DOR barr ag: 20

How did NC(Cc1ccc(C(F)(F)F)cc1)c1csc(NC(=O)Nc2ccccc2Cl)n1 (stereo unspecified) do in these assays?
ASAP1 inh: inactive; ARFGAP1 inhibitor: inactive; MC4R antag cAMP: inactive; CendR NRP1 mod: inactive; UUG fidelity: inactive; MC4R ag barr: 15; MC4R barr conf: 19; MOR-DOR barr ag: inactive
